Chains of the proteins cited; added tags and fusions are not shown. Lines headed by an entry give the natural chain unless they say otherwise; changes in a name come on top.
UniProt P30872: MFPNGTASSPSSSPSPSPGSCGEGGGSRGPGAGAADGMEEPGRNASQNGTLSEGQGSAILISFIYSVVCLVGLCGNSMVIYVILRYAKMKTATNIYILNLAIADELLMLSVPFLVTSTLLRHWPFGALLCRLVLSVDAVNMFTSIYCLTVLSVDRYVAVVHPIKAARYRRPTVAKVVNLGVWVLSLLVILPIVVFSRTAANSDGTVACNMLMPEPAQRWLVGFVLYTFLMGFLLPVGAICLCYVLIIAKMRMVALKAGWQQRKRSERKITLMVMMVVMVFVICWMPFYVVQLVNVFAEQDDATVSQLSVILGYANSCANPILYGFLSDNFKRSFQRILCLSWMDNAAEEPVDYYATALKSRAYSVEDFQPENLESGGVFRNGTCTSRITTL
UniProt P31391: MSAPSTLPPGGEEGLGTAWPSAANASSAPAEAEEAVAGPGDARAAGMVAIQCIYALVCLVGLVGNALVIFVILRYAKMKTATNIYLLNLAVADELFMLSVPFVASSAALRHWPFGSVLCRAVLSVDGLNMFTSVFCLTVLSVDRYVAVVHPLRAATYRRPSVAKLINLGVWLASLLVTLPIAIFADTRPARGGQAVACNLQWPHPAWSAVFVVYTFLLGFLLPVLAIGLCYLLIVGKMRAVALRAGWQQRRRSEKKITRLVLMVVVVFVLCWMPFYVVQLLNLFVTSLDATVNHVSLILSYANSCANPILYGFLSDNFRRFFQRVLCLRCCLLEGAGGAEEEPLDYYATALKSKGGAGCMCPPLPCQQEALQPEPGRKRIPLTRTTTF
UniProt P32745: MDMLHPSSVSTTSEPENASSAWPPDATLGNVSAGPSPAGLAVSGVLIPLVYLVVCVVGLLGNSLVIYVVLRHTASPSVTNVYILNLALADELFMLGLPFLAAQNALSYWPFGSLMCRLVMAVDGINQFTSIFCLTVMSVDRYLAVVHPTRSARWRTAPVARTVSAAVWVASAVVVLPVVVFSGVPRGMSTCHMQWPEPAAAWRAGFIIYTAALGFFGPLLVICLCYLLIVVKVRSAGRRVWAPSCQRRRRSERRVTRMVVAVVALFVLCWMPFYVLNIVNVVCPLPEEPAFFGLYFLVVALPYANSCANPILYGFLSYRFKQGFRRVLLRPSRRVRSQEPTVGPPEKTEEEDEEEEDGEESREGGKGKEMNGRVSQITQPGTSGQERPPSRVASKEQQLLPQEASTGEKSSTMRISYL

In patent US6872827B2, “Somatostatin analogue compounds” (Chembridge Research Laboratories, Inc., priority 2002, dated 2005):

Assays:
Details in all cases: Table 4
Somatostatin sst1 = biological target: T1, Somatostatin sst1 (Homo sapiens, UniProt P30872); assay: Somatostatin sst1 radioligand binding assay
T1 construct: host or cells: CHO-K1
Experimental: (§1) Compounds of the present invention were assessed for their binding affinity to sst1, sst3, and sst4 receptors by biochemical and radioligand assay according to the following procedures. The assays were conducted by MDS Pharma Services—Taiwan Ltd., Pharmacology Laboratories, 158 Li-The Road, Peitou, Taipei, Taiwan 112, R.O.C.
The protocol for sstl assay was adapted from Liapakis, G., Fitzpatrick, D., Hoeger, C., Rivier, J., Vandlen, R. and Reisine, T. (1996) “Identification of ligand binding determinants in the somatostatin receptor subtypes 1 and 2.”J. Biol. Chem. 271(24): 20331-20339, 1996; and Patel, Y. C. and Srikant, C. B. (1994) “Subtype selectivity of peptide analogs for all five cloned human somatostatin receptors (hsstr 1-5).” Endocrinology 135 (6): 2814-2817, 1994. The protocol were and can be conducted according to the following conditions.
(§2) IC50 values were determined by a non-linear, least squares regression analysis using Data Analysis Toolbox™ (MDL Information Systems, San Leandro, Calif., USA). Where inhibition constants (Ki) are presented, the Ki values were calculated using the equation of Cheng and Prusoff (Cheng, Y., Prusoff, W. H., Biochem. Pharmacol. 22:3099-3108, 1973) using the observed IC50 of the tested compound, the concentration of the radioligand employed in the assay, and the historical values for the Kd of the ligand (obtained experimentally at MDS Pharma Services). Where presented, the Hill coefficient (nH), defining the slope of the competitive binding curve, was calculated using Data Analysis Toolbox™. […] Where IC50, Ki and/or nH data are presented without Standard Error of the Mean (SEM), data are insufficient to be quantitative, and the values presented (Ki, IC50, nH) should be interpreted accordingly.

Somatostatin sst4 = biological target: T2, Somatostatin sst4 (Homo sapiens, UniProt P31391); assay: Somatostatin sst4 radioligand binding assay
T2 construct: host or cells: CHO-K1
Experimental: as §1
The protocol for sst4 assay was adapted from Patel, Y. C. and Srikant, C. B. (1994) “Subtype selectivity of peptide analogs for all five cloned human somatostatin receptors (hsstr 1-5).” Endocrinology 135 (6): 2814-2817, 1994. The protocol were and can be conducted according to the following conditions.
as §2

Somatostatin sst 3 = biological target: T3, Somatostatin sst 3 (Homo sapiens, UniProt P32745); assay: Somatostatin sst3 radioligand binding assay
T3 construct: host or cells: CHO-K1
Experimental: as §1
The protocol for sst3 assay was adapted from Liapakis, G., Fitzpatrick, D., Hoeger, C., Rivier, J., Vandlen, R. and Reisine, T. (1996) “Identification of ligand binding determinants in the somatostatin receptor subtypes 1 and 2.”J. Biol. Chem. 271(24): 20331-20339, 1996; and Patel, Y. C. and Srikant, C. B. (1994) “Subtype selectivity of peptide analogs for all five cloned human somatostatin receptors (hsstr 1-5).” Endocrinology 135 (6): 2814-2817, 1994. The protocol were and can be conducted according to the following conditions.
as §2

IC50 (Somatostatin sst1) | Ki (Somatostatin sst1) | IC50 (Somatostatin sst4) | Ki (Somatostatin sst4) | IC50 (Somatostatin sst 3) | Ki (Somatostatin sst 3) | Substance
1.86 µM | 1.77 µM | 1.59 µM | 1.4 µM | 1.53 µM | 1.36 µM | 7-Phenoxy-3′-4′-dihydro-2H-quinoline 1-(methylpiperidine-4-yl)-4-spiro-5′-1′-(1H-indole-3yl-methyl)-3′-methyl-imidazoline-2′-4′-dione
4.11 µM | 3.9 µM | 3.87 µM | 3.4 µM | 6.61 µM | 5.87 µM | 7-(4-methoxy-phenoxy)-3,4-dihydro-2H-quinoline-1-(4-aminobutyl-1-yl-)-4-spiro-5′-1′-methy-3′-[2-(1H-indol-3-yl-ethyl]-imidazoline-2′4′-dione [G]
